Data from patent US10858410B2, “Glycosylated peptides with pseudoproline residues and having enhanced half-lives and ability to cross the blood brain barrier” (ARIZONA BOARD OF REGENTS ON BEHALF OF THE UNIVERSITY OF …, priority 2015, dated 2020).

Target: T1, human PAC1 receptors (Homo sapiens, UniProt P41586)
T1 construct: host or cells: CHO (clonal line PAC1-CHO)
T1 sequence (P41586 21-468): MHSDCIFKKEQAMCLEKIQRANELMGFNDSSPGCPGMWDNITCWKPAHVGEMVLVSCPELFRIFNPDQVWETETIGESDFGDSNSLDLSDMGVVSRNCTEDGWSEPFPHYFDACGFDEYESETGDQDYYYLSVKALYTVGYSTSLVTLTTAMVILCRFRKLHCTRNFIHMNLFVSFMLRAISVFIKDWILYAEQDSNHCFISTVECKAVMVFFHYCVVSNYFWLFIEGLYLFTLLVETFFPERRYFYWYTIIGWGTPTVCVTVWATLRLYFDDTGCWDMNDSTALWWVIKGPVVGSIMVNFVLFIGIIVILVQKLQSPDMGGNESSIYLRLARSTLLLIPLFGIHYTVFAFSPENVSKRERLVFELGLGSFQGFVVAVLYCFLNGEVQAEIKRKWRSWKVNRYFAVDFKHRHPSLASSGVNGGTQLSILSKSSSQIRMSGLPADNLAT
Assay: FLIPR calcium flux, agonist mode, PAC1-CHO cells
Type: cell-based

CC[C@H](C)[C@H](NC(=O)CNC(=O)[C@H](CC(=O)O)NC(=O)[C@H](CO)NC(=O)[C@@H](N)Cc1c[nH]cn1)C(=O)N[C@@H](Cc1ccccc1)C(=O)N[C@H](C(=O)N[C@@H](CC(=O)O)C(=O)N[C@@H](CO)C(=O)N[C@@H](Cc1ccc(O)cc1)C(=O)N[C@@H](CO)C(=O)N[C@@H](CCCNC(=N)N)C(=O)N[C@@H](Cc1ccc(O)cc1)C(=O)N[C@@H](CCCNC(=N)N)C(=O)N[C@@H](CCCCN)C(=O)N[C@@H](CCC(N)=O)C(=O)N[C@@H](CCSC)C(=O)N[C@@H](C)C(=O)N[C@H](C(=O)N[C@@H](CCCCN)C(=O)N[C@@H](CCCCN)C(=O)N[C@@H](Cc1ccc(O)cc1)C(=O)N[C@@H](CC(C)C)C(=O)N[C@@H](C)C(=O)N[C@@H](C)C(=O)N[C@H](C(=O)N[C@@H](CO[C@@H]1O[C@H](CO)[C@@H](O)[C@H](O)[C@H]1O)C(N)=O)C(C)C)C(C)C)[C@@H](C)O [PACAP1-27-S-G]
EC50: 5.68 ± 2.3 nM | Emax: 102 ± 1.6%
